A short description of this series: Ex vivo assessment of skin permeability post MNP application (fluorescent dyes). Particulars: for improvement of measured fluorescence of the dermis by MNP treatment vs negative control: dye 10 μM in glycerol applied topically. Here is the method:
The skin tissues were placed on the top of 6 cm cell culture dishes filled to the top with 1×PBS with the dermis layer facing downwards and being submerged in PBS, while the epidermis facing upwards for being available to our treatment. Skin, which was stored, refrigerated, or frozen was put in PBS prior to letting it rehydrate at 4° C. for approximately 6 h. […] The set up was carefully monitored throughout the experiment and reagents were carefully added in case of evaporation. Samples were taken out in 30 min and 6 h after the addition of the dyes to evaluate permeability. The skin samples were then washed thoroughly with PBS, dried on dry napkins, and were subjected to cryo-sectioning. The skin sections were then visualized by using Zeiss AXIO Scope A1 Microscope with Axiocam 105 color (Munich, Germany) and quantified with ImageJ v1.53.

As to “Fluorescein isothiocyanate (FITC)-dextran [FITC-dextran]”, the “improvement of measured fluorescence of the dermis by MNP treatment vs negative control” value is, setting by setting: (30 min) around 10 ×; (6 h) around 7 ×. In addition, where the note is “over a 6 h experimental time”, the “improvement of skin permeability after MNP treatment” value is given as 7 fold.
